Assay results reported in PubChem BioAssay AID799 (SRMLSC, 2007).
Only a part is listed here, and it is no random draw. Calls of active or inactive are those of the source.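 Rule for the calls: active = viability gain under doxorubicin at or above a set limit, the compound median plus 3 SD (cut at about 4.7% in these data); inactive = the rest.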

assay: H69AR viability gain despite doxorubicin, primary screen, MRP-1 activator project, H69AR cells, CellTiter-Glo (AID 799); details: viability rescue, at 10 µM, stronger effect = higher value;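 note: MRP-1 overexpressing cells given doxorubicin 25 µM after compound pretreatment; 18-22 h compound pretreatment then 72 h with doxorubicin before readout; 0% = doxorubicin-only wells and 100% = vehicle-treated cells without doxorubicin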

| SMILES | viability increase |
| --- | --- |
| CCOC(=O)c1ccc(NP(C)(=O)Oc2ccc(F)cc2)cc1 (centres undefined) | inactive: -3.34% |
| CP(=O)(Nc1ccccc1)Oc1ccc(F)cc1 (centres undefined) | inactive: -2.83% |
| CCN(CC)CCCOC(=O)C(O)(c1ccccc1)C1CCCCC1 (centres undefined) | inactive: -3.54% |
| CP(=O)(Nc1ccccc1F)Oc1ccccc1 (centres undefined) | inactive: -1.8% |
| CC(C)c1ccc(OP(C)(=O)Nc2ccc(SC(F)(F)F)cc2)cc1 (centres undefined) | inactive: -2.43% |
| O=C(OCCN1CCN(CCOCc2ccccc2)CC1)C(O)(c1ccccc1)c1ccccc1 | inactive: -2.09% |
| CCOP(C)(=S)SCC(=O)NC(C)(CC)C(=O)O (centres undefined) | inactive: -1.04% |
| Cc1ccccc1NP(C)(=O)Nc1ccccc1C | inactive: -0.53% |
| CP(=O)(Nc1ccc2c(c1)OCCO2)Oc1ccccc1 (centres undefined) | inactive: -4.21% |
| CN(C)CCOC(=O)C(O)(c1ccccc1)C1CCCCC1 (centres undefined) | inactive: -2.05% |
| COc1ccc(OP(C)(=O)Nc2cccc(Br)c2)cc1 (centres undefined) | inactive: -4.66% |
| CCOC(=O)c1ccc(NP(C)(=O)Oc2ccc(Cl)cc2)cc1 (centres undefined) | inactive: -1.9% |
| CP(=O)(OC12CC3CC(CC(C3)C1)C2)OC12CC3CC(CC(C3)C1)C2 | inactive: -4.83% |
| CP(=O)(Oc1ccccc1)N1CCOC1=O (centres undefined) | inactive: 0.35% |
| CCN(CC)CC(O)COC(=O)C(O)(c1ccccc1)C1CCCCC1 (centres undefined) | inactive: -1.06% |
| COc1ccc(OP(C)(=O)Nc2ccc(Br)cc2)cc1 (centres undefined) | inactive: -1.65% |
| CC(C)(C)c1ccc(OP(C)(=O)O)cc1 | inactive: -1.02% |
| CP(=O)(Nc1ccc(Cl)cc1)Oc1ccc(F)cc1 (centres undefined) | inactive: -3.35% |
| COc1ccc(OP(C)(=O)Nc2ccccn2)cc1 (centres undefined) | inactive: -0.78% |
| CN(C)CCOC(=O)C(O)(c1ccccc1)C1CCCC1 (centres undefined) | inactive: 0.47% |
| CP(=O)(Nc1ccccn1)Oc1ccccc1 (centres undefined) | inactive: 0.38% |
| COc1ccccc1OP(C)(=O)Nc1ccc(C)cc1C (centres undefined) | inactive: -3.09% |
| CCc1ccc(OP(C)(=O)O)cc1 | inactive: -2.41% |
| Cc1c(NP(C)(=O)Oc2ccc(C(C)C)cc2)c(=O)n(-c2ccccc2)n1C (centres undefined) | inactive: 0.26% |
| COc1ccccc1OP(C)(=O)Nc1ccc(C)c(C)c1 (centres undefined) | inactive: -1.14% |

| SMILES | viability increase |
| --- | --- |
| COc1ccc(OP(C)(=O)Nc2ccccc2Br)cc1 (centres undefined) | inactive: -1.41% |
| Cc1nc2ccc3ccccc3c2o1.O=[N+]([O-])c1cc([N+](=O)[O-])c(O)c([N+](=O)[O-])c1 | inactive: 1.01% |
| CC(C)(C)c1ccc(OP(C)(=O)Nc2ccc(SC(F)(F)F)cc2)cc1 (centres undefined) | inactive: -2.14% |
| COc1ccc(OP(C)(=O)Nc2cccc(F)c2)cc1 (centres undefined) | inactive: -0.94% |
| COc1ccccc1OP(C)(=O)Nc1ccc(C)cc1 (centres undefined) | inactive: -4.03% |
| Cc1ccc(NP(C)(=O)Oc2ccccc2)c(C)c1 (centres undefined) | inactive: -1.38% |
| CCOC(=O)c1ccc(NP(C)(=O)Oc2ccccc2)cc1 (centres undefined) | inactive: 0.72% |
| CP(=O)(NC(=O)Nc1ccccc1)Oc1ccccc1 (centres undefined) | inactive: -0.35% |
| Cc1cc(C)cc(OP(C)(=O)Nc2ccc(SC(F)(F)F)cc2)c1 (centres undefined) | inactive: -3.63% |
| Cc1cccc(C)c1OP(C)(=O)Nc1ccc(SC(F)(F)F)cc1 (centres undefined) | inactive: -4.79% |
| CP(=O)(Nc1ccccn1)Oc1ccc(Cl)cc1 (centres undefined) | inactive: -2.24% |
| CCOC(=O)c1ccc(NP(C)(=O)Oc2ccc(OC)cc2)cc1 (centres undefined) | inactive: -1.48% |
| CCOP(C)(=S)SCC(=O)NC(C)C(=O)O (centres undefined) | inactive: -1.5% |
| CP(=O)(Nc1ccccc1Br)Oc1ccccc1 (centres undefined) | inactive: -2.46% |
| CP(=S)(Nn1cnnc1)Oc1ccccc1 (centres undefined) | inactive: 0.06% |
| CP(=O)(Nc1ccc(SC(F)(F)F)cc1)Oc1ccccc1 (centres undefined) | inactive: -1.16% |
| COc1ccccc1OP(C)(=O)Nc1c(C)cccc1C (centres undefined) | inactive: -2.1% |
| CN1CCCCC1COC(=O)C1(O)c2ccccc2CCc2ccccc21 (centres undefined) | inactive: -2.12% |
| Cc1nc2ccc3ccccc3c2s1.O=[N+]([O-])c1cc([N+](=O)[O-])c(O)c([N+](=O)[O-])c1 | inactive: 3.07% |
| CCOC(=O)c1ccc(NP(C)(=O)Oc2cc(C)cc(C)c2)cc1 (centres undefined) | inactive: -3.3% |
| Cc1cc(C)cc(OP(C)(=O)Nc2ccc(C)cc2C)c1 (centres undefined) | inactive: -1.18% |
| Cc1ccc(C)c(NP(C)(=O)Oc2ccccc2)c1 (centres undefined) | inactive: -0.4% |
| Cc1cc(C)cc(OP(C)(=O)Nc2ccccn2)c1 (centres undefined) | inactive: -3.21% |
| CC1=NCCc2c1[nH]c1ccccc21.O=[N+]([O-])c1cc([N+](=O)[O-])c(O)c([N+](=O)[O-])c1 | inactive: -4.51% |
